The values that follow come from patent US11304930B2, “Ammonium salts of 3-(3,5-dibromo-4-hydroxybenzyliden)-5-indo-1,3-dihydroindol-2-one and uses thereof” (Metagone Biotech Inc., priority 2018, dated 2022).

A short description of this data set: Water solubility of GW5074 salts.

Where two headings read alike, the source gives them in different places.

In the case of Ethylenediamine salt of GW5075, the Solubility worked out at 1 mg/100 mL. Also, under “listed as ethylenediamine salt of GW5047”, the Solubility is 1.0 mg/100 mL.
